# In paper PMC10971414 (Science Advances, 2024):
# Tested on: L858R/T790M EGFR phosphorylation in FKBP12^F36V-PTPN2 H1975 cells
# Assay: EGFR dephosphorylation by Western blot in FKBP12F36V-PTPN2 H1975 cells
# Format: cell-based
# Conditions: 24 h, irrespective of EGF stimulation (fig. S16)
smiles,measurement,value
COc1cc2ncnc(Nc3ccc(F)c(Cl)c3)c2cc1OCCCN1CCOCC1 [gefitinib],EGFR dephosphorylation in H1975,limited EGFR dephosphorylation
